# Assay results as given in PubChem BioAssay AID651647 (Sanford-Burnham Center for Chemical Genomics, 2012).
# Only a part is listed here, and it is no random draw. Activity calls are given as the source filed them.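 Rule for the calls: active = GFP/RFP ratio change of at least 30% with cell ATP level not reduced by more than half and red fluorescence within 50% of control; inactive = the rest, inconclusive results apart.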
# Target: Matrix metalloproteinase-14 (Homo sapiens) (UniProt P50281)
# Assay: MT1-MMP activation inhibitors, cellular reporter – HT1080 RFP-PRO-GFP cells, GFP/RFP fluorescence, primary screen (AID 651647)
# Conditions: overnight, at 20 µM, stronger effect = higher value, percent of plate control window, DMSO zero
# Summary of the method: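 system = RFP-PRO-GFP reporter HT1080 cells | dosing = 20 µM single dose, 1% DMSO | timing = overnight cell settling, then overnight compound exposure, 37 °C, 5% CO2 | read-out basis = GFP/RFP fluorescence ratio | controls = DMSO and RFP-L50D-GFP cell wells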
row,SMILES,GFP/RFP ratio change
1,O=C(Nc1cc([As](=O)(O)O)ccc1O)c1ccccc1,inactive: -0.0816%
2,O=[N+]([O-])c1ncn(CCn2ncnc2[N+](=O)[O-])n1,inactive: -1.26%
3,CC(C)(C)C(=O)NC(Sc1ccncn1)C(Cl)(Cl)Cl (stereo not given),inactive: -3.2%
4,O=C(O)CNc1ccc([As](=O)(O)O)cc1,inactive: -0.561%
5,COC(=O)C1(C)COP(=O)(Nc2ccccc2)OC1 (stereo not given),inactive: -2.8%
6,O=[N+]([O-])c1cccc(NC2=NCC(CBr)S2)c1 (stereo not given),inactive: 1.78%
7,COc1ccc(C2=NCC(CBr)S2)cc1 (stereo not given),inactive: -5.91%
8,Cc1ccc(NP(=O)(Oc2ccccc2)Oc2ccccc2)nc1,inactive: -0.494%
9,O=[N+]([O-])c1cc([N+](=O)[O-])c(CCNc2ccccc2)c([N+](=O)[O-])c1,inactive: 8.21%
10,CCc1nc2c(n1)c1c(non1O)c1c2no[n+]1[O-],inactive: -24.8%
11,CC(=O)N1C2C3N(C(C)=O)C1C1N(C(C)=O)C(C(N1C(C)=O)N3C(C)=O)N2C(C)=O,inactive: 5.18%
12,O=[N+]([O-])c1cccc2n[nH]nc12,inactive: 3.03%
13,CCN(/C(=N/P(=O)(N1CCOCC1)N1CCOCC1)N1CCOCC1)c1ccc(OC)cc1,inactive: -3.71%
14,Nc1ccc([As](=O)(O)c2ccc(N)cc2)cc1,inactive: -2.53%
15,C[N+]1=C2C=CC=CC=C2SC12C([N+](=O)[O-])=CC([N+](=O)[O-])=C[C-]2[N+](=O)[O-] (stereo not given),inactive: 15%
16,CC1CCN(C(=O)Oc2c(Cl)cc(Cl)c3cccnc23)CC1,inactive: 1.82%
17,c1cc(-c2nn[nH]n2)ccc1-c1nn[nH]n1,inactive: 3.64%
18,CC(C)c1nc(Nc2ccccc2)n(P(=O)(N(C)C)N(C)C)n1,inactive: -0.594%
19,CC(C)=N/N=C(\N)N[N+](=O)[O-],inactive: 1.16%
20,CN(C)C(=O)OCCc1n(C)cc[n+]1C,inactive: -5.69%
21,COP1(=S)c2c(C)nn(CCC#N)c2N=C(c2ccc(F)cc2)N1C (stereo not given),inactive: -2.63%
22,COC(=O)C1(C)COP(=O)(N2CCCC2)OC1 (stereo not given),inactive: -0.11%

row,SMILES,GFP/RFP ratio change
1,O=C(O)C(=O)c1ccc(N(CCCl)CCCl)cc1,inactive: 4.38%
2,O=C(COc1ccccc1)OC1CN2CCC1CC2 (stereo not given),inactive: -3.59%
3,O=C(Nc1ccncc1[N+](=O)[O-])c1ccc([N+](=O)[O-])cc1[N+](=O)[O-],inactive: -14.5%
4,O=C(OC1CN2CCC1CC2)c1cccc([N+](=O)[O-])c1 (stereo not given),inactive: 0.425%
5,CSc1ccc(Nc2c([N+](=O)[O-])cc([N+](=O)[O-])cc2[N+](=O)[O-])cc1,inactive: 15.3%
6,CCOC(=O)c1ccc(NC(=O)C(C)(CCl)SC)cc1 (stereo not given),inactive: 1.5%
7,CCC(C)N(CC(C)C)C(=S)SC(NC(C)=O)C(Cl)(Cl)Cl (stereo not given),inactive: 2.8%
8,O=C(O)C(O)c1ccc(N(CCCl)CCCl)cc1 (stereo not given),inactive: -3.6%
9,CCOC(=O)Nc1ccc([As](=O)(O)O)c(O)c1,inactive: 5.45%
10,CC1CCNP(=O)(N(CCCl)CCCl)O1 (stereo not given),inactive: 0.923%
11,COP(=O)(OC)N1CC1c1ccccc1 (stereo not given),inactive: -1.43%
12,CCCCOc1ccc(C(=O)NCC2(N3CCCCC3)CCCCC2)cc1OC,inactive: -0.23%
13,Cc1cc(SC(NC(=O)c2ccccc2)C(Cl)(Cl)Cl)nc(C(C)C)n1 (stereo not given),inactive: -5.77%
14,CCOC(=O)Nc1cccc([As](=O)(O)O)c1,inactive: 5.41%
15,Cc1cc(SC(NC=O)C(Cl)(Cl)Cl)ncn1 (stereo not given),inactive: 4.72%
16,O=P(Nc1ccccn1)(c1cccc2ccccc12)c1cccc2ccccc12,inactive: -2.59%
17,O=[N+]([O-])c1ccc(Nc2ccc(Oc3ccc([N+](=O)[O-])cc3[N+](=O)[O-])cc2)c([N+](=O)[O-])c1,inactive: 5.17%
18,C[As](=O)(O)c1cccc(C(=O)O)c1,inactive: 1.56%
19,O=[As](O)(c1ccc(O)cc1)c1ccccc1O,inactive: 2.43%
20,O=[N+]([O-])c1ccc(-c2cc([N+](=O)[O-])c(O)c([N+](=O)[O-])c2)cc1,inactive: -0.704%
21,COc1cc(C(=O)NCC2(N3CCOCC3)CCCCC2)ccc1OCC(C)C,inactive: -2.48%
22,Cc1ccc(OP(=O)(Nc2ccc([N+](=O)[O-])cn2)Oc2ccc(C)cc2)cc1,inactive: 0.89%

row,SMILES,GFP/RFP ratio change
1,[N-]=[N+]=NC1CCCCC1NC(=O)c1cc([N+](=O)[O-])cc([N+](=O)[O-])c1 (stereo not given),inactive: 2.67%
2,Cc1ccc2nc3c(c(C)c2c1)CC(C(Cl)Cl)S3 (stereo not given),inactive: 6.73%
3,ClCCSc1nnc(-c2cccnc2)o1,inactive: 3.43%
4,COC(=O)C1(C)COP(=O)(N2CCCCCC2)OC1 (stereo not given),inactive: -4.55%
5,CC(C)NC(=O)NP(=O)(Oc1ccccc1)Oc1ccccc1,inactive: 0.19%
6,O=C(OC1CN2CCC1CC2)c1cccc2[nH]cnc12 (stereo not given),inactive: -3.16%
7,CCN(CC)C(=S)SC(NC=O)C(Cl)(Cl)Cl (stereo not given),inactive: 1.74%
8,O=[N+]([O-])c1cc([N+](=O)[O-])c(-c2ccn[nH]2)s1,inactive: -1.65%
9,Cc1c2c(nc3ccccc13)SC(C(Cl)Cl)C2 (stereo not given),inactive: -2.19%
10,O=C(OC1CN2CCC1CC2)C12CC3CC(CC(C3)C1)C2 (stereo not given),inactive: 4.07%
11,Cc1cc(=O)[nH]c(N[N+](=O)[O-])n1,inactive: 1.18%
12,O=P1(N(CCCl)CCCl)Nc2ccccc2N1,inactive: 1.28%
13,O=P1(N(CCCl)CCCl)OCCCN1CCCl (stereo not given),inactive: 0.329%
14,COc1ccc2nc(NP(=O)(c3ccccc3)c3ccccc3)sc2c1,inactive: 6.31%
15,COc1cc(I)ccc1[As](=O)(O)O,inactive: 6.95%
16,O=[N+]([O-])c1cc(Oc2ccc([N+](=O)[O-])cc2C(F)(F)F)cc([N+](=O)[O-])c1,inactive: -0.514%
17,COc1ccc(N/C(=N/P(=O)(N2CCOCC2)N2CCOCC2)N2CCOCC2)cc1,inactive: -0.0325%
18,O=C(OC1CN2CCC1CC2)c1ccc(Cl)cc1 (stereo not given),inactive: 0.413%
19,O=[As](O)(O)c1cccnc1,inactive: 1.85%
20,COc1cc(C(=O)NCC2(N3CCOCC3)CCCCC2)cc(Cl)c1OC(C)C,inactive: -11.3%
21,CS(=O)(=O)c1ccc(Cl)c(NC(=O)COC(=O)C(O)(c2ccccc2)c2ccccc2)c1,inactive: -0.373%
22,Cc1cccc(OCC(=O)OC2CN3CCC2CC3)c1 (stereo not given),inactive: 0.747%

row,SMILES,GFP/RFP ratio change
1,O=[As](O)(c1cccc(O)c1)c1cccc(O)c1,inactive: -0.0148%
2,Nc1cccc2c([As](=O)(O)O)cccc12,inactive: -33.2%
3,Cc1ccc(NCCc2c([N+](=O)[O-])cc([N+](=O)[O-])cc2[N+](=O)[O-])cc1,active: 34.9%
4,CCCOP(=S)(Nc1nc(N)cc(=O)[nH]1)OCCC,inactive: 1.95%
5,COc1cc(C2NCCC3(OCCO3)C2(C)C)cc(OC)c1OC (stereo not given),inactive: -0.342%
6,CCOP(=O)(Nc1cccc2ccccc12)OCC,inactive: 0.547%
7,CCOP1(=S)c2c(C)nn(CCC#N)c2N=C(c2ccccc2F)N1C (stereo not given),inactive: -1.76%
8,O=P(Nc1nccs1)(Oc1ccccc1)Oc1ccccc1,inactive: 3.72%
9,O=P(Nc1nccs1)(c1ccccc1)c1nc2ccccc2s1 (stereo not given),inactive: -0.0922%
10,CS(=O)(=O)c1cc([N+](=O)[O-])c2no[n+]([O-])c2c1,inactive: -6.51%
11,O=C(O)COc1ccc([As](=O)(O)O)cc1[N+](=O)[O-],inactive: 10.6%
12,Nc1ccccc1[As](=O)(O)c1ccccc1,inactive: 0.822%
13,NC(=O)Nc1ccc([As](=O)(O)O)cc1,inactive: -1.25%
14,N#CCCN(C(=O)COC(=O)C(O)(c1ccccc1)c1ccccc1)c1ccc(F)cc1,inactive: 1.33%
15,CN(C(=O)Cc1ccccc1)[C@@H]1CC[C@]2(CCCO2)C[C@H]1N1CCCC1,inactive: -3.74%
16,CCOP1(=S)c2c(C)nn(CCC#N)c2N=C(c2ccc(F)cc2)N1C (stereo not given),inactive: 2.84%
17,O=[N+]([O-])c1ccc2c(c1)nnn2O,inactive: -0.101%
18,CN(C)C(=O)c1cc([N+](=O)[O-])cc2c1-c1c(cc([N+](=O)[O-])cc1[N+](=O)[O-])C2=O,inactive: 7.65%
19,CN(C(=O)Cc1ccc(Cl)c(Cl)c1)[C@H]1CC[C@@]2(CCCO2)C[C@@H]1N1CCCC1,inactive: 4.38%
20,Cc1nn(-c2ccccc2)c2c1P(=O)(N1CCOCC1)N(C)C(c1ccccc1)=N2 (stereo not given),inactive: 2.78%
21,Cc1ccc(C(=O)OC2CN3CCC2CC3)cc1 (stereo not given),inactive: -0.418%
22,CC1CCC(C(C)C)C(OP(=O)(Nc2ccccn2)c2ccccc2)C1 (stereo not given),inactive: -12.5%

row,SMILES,GFP/RFP ratio change
1,CN(C)C1(CNC(=O)c2ccc(S(C)(=O)=O)cc2)CCCCC1,inactive: 1.45%
2,O=C(/C=C/c1ccccc1)OC1CN2CCC1CC2 (stereo not given),inactive: -0.0734%
3,CCCC1OP(=O)(Nc2ccccc2)OCC1CC (stereo not given),inactive: -4.8%
4,Cc1ccc(S(=O)(=O)N(CCCN)CCCc2c(C)nc(N)[nH]c2=O)cc1,inactive: 7.93%
5,O=P1(Nc2ncccn2)COc2ccccc2OC1,inactive: 2.73%
6,Nc1cccc([As](=O)(O)c2ccccc2)c1,inactive: 2.09%
7,O=[As](O)(c1cccs1)c1cccs1,inactive: -1.32%
8,Cc1ccc(OCC(=O)OC2CN3CCC2CC3)cc1 (stereo not given),inactive: 3.02%
9,NS(=O)(=O)c1cccc(NC(=O)COC(=O)C(O)(c2ccccc2)c2ccccc2)c1,inactive: -2.16%
10,O=P1(Nc2ccc(Br)cn2)COc2ccccc2OC1,inactive: 0.719%
11,CCC1=CC2Cc3nc4ccc(Cl)cc4c(N)c3C(C1)C2 (stereo not given),inactive: 1.95%
12,O=P1(Nc2ccccn2)COc2ccccc2OC1,inactive: -5.51%
13,CCOP(=O)(NC(=NC(C)c1ccccc1)NC(C)c1ccccc1)OCC (stereo not given),inactive: 0.28%
14,CCOP(=O)(Nc1ccc(C)cn1)OCC,inactive: 2.53%
15,CN(CCCl)Cc1cc(Cl)c(NC2=NCCN2)c(Cl)c1,inactive: -2.62%
16,Clc1n[nH]nc1-c1nn[nH][15n]1,inactive: 2.74%
17,O=P1(N(CCCl)CCCl)NCCC(C(F)(F)F)O1 (stereo not given),inactive: 1.65%
18,CC(C)(C)C(=O)NC(Sc1ncccn1)C(Cl)(Cl)Cl (stereo not given),inactive: 4.85%
19,COc1ccccc1CNC(=O)COC(=O)C(O)(c1ccccc1)c1ccccc1,inactive: -2.84%
20,CN(C(=O)Cc1ccc(Cl)c(Cl)c1)[C@@H]1CCCC[C@H]1N1CCCC1,inactive: -0.763%
21,CC(C)/C=N\N=C(\N)N[N+](=O)[O-],inactive: -3.47%
22,CC1(CBr)Cn2c(nc3ccccc3c2=O)S1 (stereo not given),inactive: -3.24%
